The target in one experiment is human μ opiate receptor (Homo sapiens, UniProt P35372). Nature of the experiment: μ binding, displacement of [3H]-naloxone. The following applies: CHO-K1 membranes expressing human μ opiate receptor; for % inhibition (μ) at 1 μM: 1 μM test compound; for Ki: read-out: Ki [μM] (μ), Cheng-Prusoff. On the technique in general: In a radioligand displacement assay an active substance lowers the binding of a labelled ligand.

Protein sequences, listed by entry. Tags and fused reporters are not part of them. Lines headed by an entry give the natural chain unless they say otherwise; changes in a name come on top.
UniProt P35372, whole entry, looked up: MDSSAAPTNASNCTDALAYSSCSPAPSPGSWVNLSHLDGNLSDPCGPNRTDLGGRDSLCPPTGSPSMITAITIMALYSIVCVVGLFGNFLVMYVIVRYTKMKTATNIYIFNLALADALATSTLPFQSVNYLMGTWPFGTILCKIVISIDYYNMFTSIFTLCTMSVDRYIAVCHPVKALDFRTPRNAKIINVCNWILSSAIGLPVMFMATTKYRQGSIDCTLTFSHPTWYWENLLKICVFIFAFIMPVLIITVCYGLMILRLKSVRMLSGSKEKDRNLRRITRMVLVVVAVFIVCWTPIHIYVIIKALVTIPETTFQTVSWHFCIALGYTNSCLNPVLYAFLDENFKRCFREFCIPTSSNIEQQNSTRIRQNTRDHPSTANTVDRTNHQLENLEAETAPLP
UniProt P41146: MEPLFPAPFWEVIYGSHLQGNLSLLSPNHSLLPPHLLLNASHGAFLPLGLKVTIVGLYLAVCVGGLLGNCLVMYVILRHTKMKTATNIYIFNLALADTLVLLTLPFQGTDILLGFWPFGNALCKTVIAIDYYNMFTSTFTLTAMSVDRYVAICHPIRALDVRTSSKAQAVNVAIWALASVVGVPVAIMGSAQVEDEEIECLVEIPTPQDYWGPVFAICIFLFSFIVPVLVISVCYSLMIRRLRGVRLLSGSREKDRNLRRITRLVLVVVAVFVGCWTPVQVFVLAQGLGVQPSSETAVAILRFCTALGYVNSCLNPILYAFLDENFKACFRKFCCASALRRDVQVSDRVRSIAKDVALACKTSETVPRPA

Another experiment addresses ORL1 receptor (Homo sapiens, UniProt P41146). Nature of the experiment: ORL1 receptor binding assay with 3H-nociceptin/orphanin FQ. The following applies: membranes from recombinant CHO-ORL1 cells; for % inhibition (ORL1) at 1 μM: 1 μM test compound; for Ki: read-out: Ki [μM] (ORL1).

In the case of `CN(C)C1(Cc2ccccc2)CCC(c2[nH]c3ccccc3c2CCCO)CC1` (stereo not shown), at human μ opiate receptor, the “% inhibition (μ) at 1 μM” value amounted to 98%. Moreover, at ORL1 receptor, the “% inhibition (ORL1) at 1 μM” value turned out to be 86%.
The Ki is a measure of affinity in units of concentration, obtained from inhibition or displacement. With `CN(C)C1(c2ccccc2)CC=C(c2[nH]c3cc(Cl)cc(Cl)c3c2CCO)CC1` (racemic), the inhibition constant Ki on human μ opiate receptor came to 0.037 µM. In addition, the “% inhibition (ORL1) at 1 μM” value on ORL1 receptor was found to be 39%.
On to `Cc1c(C2=CCC(c3ccccc3)(N(C)C)CC2)[nH]c2ccc(F)cc12` (racemic), for which the “% inhibition (μ) at 1 μM” value at human μ opiate receptor was determined as 39%. The “% inhibition (ORL1) at 1 μM” value on ORL1 receptor worked out at 12%.
In the same order, the values of `CN(C)C1(c2ccccc2)CCC(c2[nH]c3ncccc3c2CCCO)CC1` (stereo not shown) are 88% and 67%.
`CN(C)C1(c2cc3ccccc3s2)CC=C(c2[nH]c3ccccc3c2CCO)CC1` (racemic): the inhibition constant Ki at human μ opiate receptor is 0.036 µM; at ORL1 receptor, 3 µM.
For the compound `CCCCC1(N(C)C)CC=C(c2[nH]c3ccc(F)cc3c2CCn2cnc3ccccc32)CC1` (racemic), on human μ opiate receptor, the “% inhibition (μ) at 1 μM” value was found to be 100%. In addition, at ORL1 receptor, the “% inhibition (ORL1) at 1 μM” value turned out to be 88%.
In the same order, the values of `CN(C)C1(c2ccccc2)CC=C(c2[nH]c3ccccc3c2CCc2ccncc2)CC1` (racemic) are 92% and 62%.
For `CNCC(O)Cn1c(C2CCC(c3ccccc3)(N(C)C)CC2)c(C)c2ccccc21` (stereo not shown) the same measures were 57% and 57%.
In the same order, the values of `CCCc1c(C2=CCC(c3ccccc3)(N(C)C)CC2)[nH]c2ccccc12` (racemic) are 37% and 17%.
Regarding `OCCc1c(C2=CCC(c3ccccc3)(N3CCCC3)CC2)[nH]c2ccc(F)cc12` (racemic), the “% inhibition (μ) at 1 μM” value on human μ opiate receptor worked out at 98%. On ORL1 receptor, the “% inhibition (ORL1) at 1 μM” value came to 46%.
For `CCCCC1(N(C)C)CC=C(c2[nH]c3ccccc3c2CCCO)CC1` (racemic), the “% inhibition (μ) at 1 μM” value at human μ opiate receptor was 98%. For the same compound, the “% inhibition (ORL1) at 1 μM” value on ORL1 receptor was 74%.
In the same order, the values of `CN(C)C1(c2ccccc2)CC=C(c2[nH]c3ccc(F)cc3c2CCn2cnc3ccccc32)CC1` (racemic) are 95% and 89%.
In the case of “1-(2-(2-(4-(Dimethylamino)-4-phenylcyclohexyl)-1H-indol-3-yl)ethyl)pyrrolidine-2.5-dione [Example 188]”, the “% inhibition (μ) at 1 μM” value on human μ opiate receptor (1 µM) stood at 68%. Besides, at ORL1 receptor (1 µM), the “% inhibition (ORL1) at 1 μM” value was determined as 41%.
In the case of `Cc1c(C2CCC(c3ccccc3)(N(C)C)CC2)n(CC2CO2)c2ccccc12` (racemic), the “% inhibition (μ) at 1 μM” value on human μ opiate receptor was determined as 97%. The “% inhibition (ORL1) at 1 μM” value at ORL1 receptor is recorded as 95%.
Regarding `CCCCC1(N(C)C)CC=C(c2c[nH]c3ncccc23)CC1` (racemic), the “% inhibition (μ) at 1 μM” value on human μ opiate receptor is on record as 49%. In addition, the “% inhibition (ORL1) at 1 μM” value on ORL1 receptor is on record as 12%.
For `CCCCC1(N(C)C)CC=C(c2[nH]c3ccccc3c2C)CC1` (racemic) the same measures were 100% and 96%.
In the same order, the values of `CCCCC1(N(C)C)CCC(c2[nH]c3ccccc3c2C2CC2)CC1` (stereo not shown) are 27% and 18%.
In the same order, the values of `CN(C)C1(c2ccccc2)CCC(c2[nH]c3ccccc3c2CCCC(=O)O)CC1` (stereo not shown) are 99% and 83%.
Take `CN(C)C1(c2ccccc2)CCC(c2c[nH]c3ncccc23)CC1` (stereo not shown): the “% inhibition (μ) at 1 μM” value at human μ opiate receptor worked out at 62%. In addition, the “% inhibition (ORL1) at 1 μM” value on ORL1 receptor is reported as 39%.
In the same order, the values of `Cc1c(C2=CCC(c3ccccc3)(N(C)C)CC2)[nH]c2ccc(C(F)(F)F)cc12` (racemic) are 53% and 27%.
For `Cc1c(C2=CCC(Cc3ccccc3)(N(C)C)CC2)[nH]c2ccccc12` (racemic) the same measures were 89% and 75%.
For `CN(C)C1(Cc2ccccc2)CC=C(c2[nH]c3ccc(F)cc3c2CCn2cnc3ccccc32)CC1` (racemic) the same measures were 100% and 35%.
`Cc1c(C2=CCC(c3ccccc3)(N(C)C)CC2)[nH]c2ccc(C#N)cc12` (racemic): the “% inhibition (μ) at 1 μM” value at human μ opiate receptor was 96%. In addition, the “% inhibition (ORL1) at 1 μM” value at ORL1 receptor was 87%.
In the same order, the values of `CN(C)C1(c2ccccc2)CC=C(c2c[nH]c3ncccc23)CC1` (racemic) are 72% and 37%.
In the same order, the values of `Cc1c(C2CCC(c3ccccc3)(N(C)C)CC2)[nH]c2ccc(C(F)(F)F)cc12` (stereo not shown) are 24% and 18%.
`CN(C)C1(Cc2ccccc2)CCC(c2c[nH]c3ncccc23)CC1` (stereo not shown): the “% inhibition (μ) at 1 μM” value on human μ opiate receptor turned out to be 36%. Also, the “% inhibition (ORL1) at 1 μM” value at ORL1 receptor is 22%.
As for `CN(C)C1(c2ccccc2)CC=C(c2[nH]c3ccc(-c4cccnc4)cc3c2CCO)CC1` (racemic), on human μ opiate receptor, the Ki came out at 0.32 µM. In addition, the “% inhibition (ORL1) at 1 μM” value on ORL1 receptor was determined as 49%.
In the same order, the values of `CCCCC1(N(C)C)CC=C(c2[nH]c3ccc(C(F)(F)F)cc3c2C)CC1` (racemic) are 0.14 µM and 73%.
With `CN(C)C1(c2ccccc2)CC=C(c2[nH]c3ccccc3c2Cc2ccccc2)CC1` (racemic), the “% inhibition (μ) at 1 μM” value at human μ opiate receptor is reported as 40%. The “% inhibition (ORL1) at 1 μM” value on ORL1 receptor is 29%.
For the compound `CN(C)C1(c2ccccc2)CCC(c2[nH]c3ccc(F)cc3c2CCn2cnc3ccccc32)CC1` (stereo not shown), the “% inhibition (μ) at 1 μM” value on human μ opiate receptor was 97%. Further, at ORL1 receptor, the “% inhibition (ORL1) at 1 μM” value is on record as 102%.
As to `Cc1c(C2CCC(c3ccccc3)(N(C)C)CC2)[nH]c2ccc(C#N)cc12` (stereo not shown), the “% inhibition (μ) at 1 μM” value on human μ opiate receptor is 54%. The “% inhibition (ORL1) at 1 μM” value at ORL1 receptor amounted to 38%.
For “4-(1.3-Dimethyl-1H-indol-2-yl)-N,N-dimethyl-1-phenylcyclohexanamine” the same measures were 91% and 67%.
Consider `COc1cc2[nH]c(C3=CCC(c4ccccc4)(N(C)C)CC3)c(CCO)c2cc1F` (racemic), for which the “% inhibition (μ) at 1 μM” value on human μ opiate receptor was found to be 98%. In addition, on ORL1 receptor, the “% inhibition (ORL1) at 1 μM” value came out at 65%.
For `CCCc1c(C2=CCC(Cc3ccccc3)(N(C)C)CC2)[nH]c2ccccc12` (racemic) the same measures were 73% and 50%.
For “4-(2-(4-(Dimethylamino)-4-phenylcyclohexyl)-1H-indol-3-yl)butanol” the same measures were 100% and 99%.
For `CCCCC1(N(C)C)CC=C(c2[nH]c3ccccc3c2CCc2ccncc2)CC1` (racemic) the same measures were 101% and 78%.
Take `CN(C)C1(c2ccccc2)CC=C(c2cn(S(=O)(=O)c3ccccc3)c3ccccc23)CC1` (racemic): on human μ opiate receptor, the “% inhibition (μ) at 1 μM” value turned out to be 18%. The “% inhibition (ORL1) at 1 μM” value at ORL1 receptor is reported as 32%.
For `CCCCC1(N(C)C)CC=C(c2[nH]c3ccc(F)cc3c2CCn2ccnn2)CC1` (racemic) the same measures were 97% and 52%.
In the same order, the values of `Cc1c(C2=CCC(c3ccccc3)(N(C)C)CC2)n(CC(O)CN(C)C)c2ccccc12` (racemic) are 43% and 23%.
For `CCCCC1(N(C)C)CCC(c2c[nH]c3ncccc23)CC1` (stereo not shown) the same measures were 64% and 74%.
For the compound `CN(C)C1(c2ccccc2)CC=C(c2[nH]c3cc(Cl)c(Cl)cc3c2CCO)CC1` (racemic), the “% inhibition (μ) at 1 μM” value on human μ opiate receptor is 40%. In addition, the Ki at ORL1 receptor amounted to 2 µM.
Consider `Cc1c(C2CCC(c3ccccc3)(N(C)C)CC2)n(CC2CO2)c2ccccc12` (stereo not shown), for which the “% inhibition (μ) at 1 μM” value on human μ opiate receptor is given as 42%. Besides, the “% inhibition (ORL1) at 1 μM” value on ORL1 receptor was 14%.
For “3-(2-(4-(Dimethylamino)-4-phenylcyclohexyl)-1H-indol-3-yl)propyl acetate [Example 186]”, the “% inhibition (μ) at 1 μM” value on human μ opiate receptor (1 µM) was found to be 101%. For the same compound, the “% inhibition (ORL1) at 1 μM” value at ORL1 receptor (1 µM) is 98%.
In the case of `CN(C)C1(Cc2ccccc2)CC=C(c2c[nH]c3ncccc23)CC1` (racemic), the “% inhibition (μ) at 1 μM” value at human μ opiate receptor was found to be 80%. In addition, on ORL1 receptor, the “% inhibition (ORL1) at 1 μM” value was 32%.
In the same order, the values of `COc1ccc2[nH]c(C3=CCC(c4ccccc4)(N(C)C)CC3)c(C)c2c1` (racemic) are 58% and 35%.
For `CN(C)C1(c2ccccc2)CC=C(c2[nH]c3ccccc3c2CCN2CCCCC2)CC1` (racemic) the same measures were 92% and 90%.
For the compound `CCCCC1(N(C)C)CC=C(c2[nH]c3ccccc3c2CCC)CC1` (racemic), the inhibitory constant (Ki) on human μ opiate receptor was 0.53 µM. At ORL1 receptor, the “% inhibition (ORL1) at 1 μM” value is recorded as 48%.
In the same order, the values of `CN(C)C1(c2ccccc2)CC=C(c2[nH]c3ccc(F)cc3c2CCO)CC1` (racemic) are 0.033 µM and 37%.
For the compound “1-(2-(2-(4-(Dimethylamino)-4-phenylcyclohexyl)-1H-indol-3-yl)ethyl)pyrrolidine-2.5-dione [Example 187]”, at human μ opiate receptor (1 µM), the “% inhibition (μ) at 1 μM” value worked out at 100%. The “% inhibition (ORL1) at 1 μM” value at ORL1 receptor (1 µM) came out at 100%.
`CN(C)C1(c2ccccc2)CCC(c2[nH]c3ccccc3c2CCN2CCCCC2)CC1` (stereo not shown): the “% inhibition (μ) at 1 μM” value on human μ opiate receptor is recorded as 95%. Besides, the “% inhibition (ORL1) at 1 μM” value on ORL1 receptor turned out to be 99%.
In the same order, the values of `CN(C)C1(c2ccccc2)CCC(c2[nH]c3ccccc3c2C2CC2)CC1` (stereo not shown) are 28% and 32%.
Consider `CC(=O)OCCc1c(C2=CCC(c3ccccc3)(N(C)C)CC2)[nH]c2ccccc12` (stereo not shown), for which the Ki on human μ opiate receptor is 0.11 µM. Also, the “% inhibition (ORL1) at 1 μM” value at ORL1 receptor was 58%.
`CN(C)C1(c2ccccc2)CCC(c2[nH]c3ccccc3c2CCC(=O)O)CC1` (stereo not shown): at human μ opiate receptor, the “% inhibition (μ) at 1 μM” value is 99%. Besides, on ORL1 receptor, the “% inhibition (ORL1) at 1 μM” value is on record as 84%.
